From PubChem BioAssay AID630 (Emory University Molecular Libraries Screening Center, 2007)
The list shows a part of the results, in another mix than the full data. Active and inactive are the calls of the source.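 The calls were made as follows: active = compounds that reduce the energy-transfer binding signal between the protein and its labelled peptide by more than half; inactive = the rest.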

Chains of the proteins cited; added tags and fusions are not shown.
UniProt P84022, whole entry: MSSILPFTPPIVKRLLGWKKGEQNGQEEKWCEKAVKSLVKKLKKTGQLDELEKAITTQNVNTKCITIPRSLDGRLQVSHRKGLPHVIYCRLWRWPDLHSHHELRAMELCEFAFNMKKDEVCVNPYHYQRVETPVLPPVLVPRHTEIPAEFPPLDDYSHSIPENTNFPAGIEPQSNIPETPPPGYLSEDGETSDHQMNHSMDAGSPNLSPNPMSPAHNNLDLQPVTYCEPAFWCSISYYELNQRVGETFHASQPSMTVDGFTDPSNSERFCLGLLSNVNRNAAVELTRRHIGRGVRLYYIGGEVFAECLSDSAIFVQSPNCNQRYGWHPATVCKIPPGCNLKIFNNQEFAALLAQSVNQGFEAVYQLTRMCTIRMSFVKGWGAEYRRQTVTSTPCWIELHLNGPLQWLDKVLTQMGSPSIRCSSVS

target: Mothers against decapentaplegic homolog 3 (Homo sapiens) (UniProt P84022); assay: blockers of Smad3 binding to FoxH1 – biochemical, TR-FRET, primary screen (AID 630); settings: TR-FRET Smad3/Dy647-FoxH1 peptide binding, europium anti-His; at 25 µM; active compounds read high;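 also: 0% = Smad3 plus labelled peptide maximal FRET and 100% = peptide-only background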

SMILES	inhibition
Cc1cc(C)cc(OP(C)(=O)Nc2ccccn2)c1 (stereo unspecified)	inactive: 7.03%
Cc1ccc(C)c(NP(C)(=O)Oc2ccccc2)c1 (stereo unspecified)	inactive: 4.47%
Cc1cc(C)cc(OP(C)(=O)Nc2ccc(C)cc2C)c1 (stereo unspecified)	inactive: -0.19%
COc1ccccc1OP(C)(=O)Nc1c(C)cccc1C (stereo unspecified)	inactive: 8.87%
Cc1nc2ccc3ccccc3c2s1.O=[N+]([O-])c1cc([N+](=O)[O-])c(O)c([N+](=O)[O-])c1	inactive: 19.4%
CP(=O)(Nc1ccccn1)Oc1ccc(Cl)cc1 (stereo unspecified)	inactive: 2.03%
CCOP(C)(=S)SCC(=O)NC(C)C(=O)O (stereo unspecified)	inactive: 0.66%
CP(=O)(NC(=O)Nc1ccccc1)Oc1ccccc1 (stereo unspecified)	inactive: -15.5%
CP(=S)(Nn1cnnc1)Oc1ccccc1 (stereo unspecified)	inactive: -4.74%
N1=C(c2nnc(-c3nn[nH]n3)nn2)NNN1	inactive: 1.1%
COc1ccc(OP(C)(=O)Nc2cccc(F)c2)cc1 (stereo unspecified)	inactive: 5.51%
COc1ccccc1OP(C)(=O)Nc1ccc(C)cc1 (stereo unspecified)	inactive: 1.8%
Cc1ccc(NP(C)(=O)Oc2ccccc2)c(C)c1 (stereo unspecified)	inactive: 3.65%
CCc1ccc(OP(C)(=O)O)cc1	inactive: -8.82%
CP(=O)(Nc1ccccn1)Oc1ccccc1 (stereo unspecified)	inactive: -5.97%
COc1ccccc1OP(C)(=O)Nc1ccc(C)cc1C (stereo unspecified)	inactive: -4.26%
Cc1c(NP(C)(=O)Oc2ccc(C(C)C)cc2)c(=O)n(-c2ccccc2)n1C (stereo unspecified)	inactive: -16.4%
CN(C)CCOC(=O)C(O)(c1ccccc1)C1CCCC1 (stereo unspecified)	inactive: -4.02%

SMILES	inhibition
COc1ccc(OP(C)(=O)Nc2ccccn2)cc1 (stereo unspecified)	inactive: -7.57%
[Au].[Au].c1ccc([PH+](c2ccccc2)c2ccccc2)cc1.c1ccc([PH+](c2ccccc2)c2ccccc2)cc1.n1n[n-]c(-c2nnn[n-]2)n1	active: 75.4%
Cc1nc2ccc3ccccc3c2o1.O=[N+]([O-])c1cc([N+](=O)[O-])c(O)c([N+](=O)[O-])c1	inactive: -3.55%
COc1ccccc1OP(C)(=O)Nc1ccc(C)c(C)c1 (stereo unspecified)	inactive: 4.74%
CP(=O)(OC12CC3CC(CC(C3)C1)C2)OC12CC3CC(CC(C3)C1)C2	inactive: 10.3%
CP(=O)(Nc1ccc(Cl)cc1)Oc1ccc(F)cc1 (stereo unspecified)	inactive: -10.2%
CC(C)(C)c1ccc(OP(C)(=O)O)cc1	inactive: 18.5%
CP(=O)(Oc1ccccc1)N1CCOC1=O (stereo unspecified)	inactive: 5.27%
COc1ccccc1OP(C)(=O)Nc1c(C)n(C)n(-c2ccccc2)c1=O (stereo unspecified)	inactive: -3.48%
NNC(NN)NN.n1nc(-c2nn[nH]n2)n[nH]1	inactive: 4.42%
Cc1ccccc1NP(C)(=O)Nc1ccccc1C	inactive: 15.2%
CP(=O)(Nc1ccc2c(c1)OCCO2)Oc1ccccc1 (stereo unspecified)	inactive: -17.1%
CCOP(C)(=S)SCC(=O)NC(C)(CC)C(=O)O (stereo unspecified)	inactive: -3.12%
CN(C)CCOC(=O)C(O)(c1ccccc1)C1CCCCC1 (stereo unspecified)	inactive: 1.4%
CP(=O)(Nc1ccccc1)Oc1ccc(F)cc1 (stereo unspecified)	inactive: -3.74%
CCN(CC)CCCOC(=O)C(O)(c1ccccc1)C1CCCCC1 (stereo unspecified)	inactive: -2.73%
CP(=O)(Nc1ccccc1F)Oc1ccccc1 (stereo unspecified)	inactive: 14.2%
CN1CC[C@@H](OC(=O)[C@](O)(c2ccccc2)C2CCCC2)C1	inactive: 47.8%
